The values below come from ChEMBL document CHEMBL1144753, “Inhibitors of DNA polymerase beta: activity and mechanism” (Bioorg Med Chem, 2008).

For assay [1], the target named is DNA polymerase beta (Rattus norvegicus) (UniProt P06766). Briefly: Inhibition of polymerase activity of DNA polymerase beta.
The target is the same in assay [2]. Put plainly: Inhibition of lyase activity of DNA polymerase beta.

In the case of `O=c1ccc2ccc(Oc3cc4ccc(O)cc4oc3=O)cc2o1` [EDGEWORIN], the IC50 worked out at 31.4 µM in assay [1] and 38.9 µM in assay [2].
On the same counts, the results for `C=C(C)[C@@H]1CC[C@]2(C(=O)O)CC[C@]3(C)[C@H](CC[C@@H]4[C@@]5(C)CC[C@H](O)C(C)(C)[C@@H]5CC[C@]43C)[C@@H]12` [BETULINIC ACID] are 46.2 µM and 33.7 µM.

In general, IC50 refers to the concentration at which inhibition is half-maximal. A higher IC50 goes with weaker potency in that assay.
